Results: patent publication US5580982A, “Substituted 3-(aminoalkylamino)-1,2-benzisoxazoles and related compounds” (priority 1995, dated 1996)

The chains behind the UniProt entries cited, without tags or fusion partners.
UniProt P19643, whole entry: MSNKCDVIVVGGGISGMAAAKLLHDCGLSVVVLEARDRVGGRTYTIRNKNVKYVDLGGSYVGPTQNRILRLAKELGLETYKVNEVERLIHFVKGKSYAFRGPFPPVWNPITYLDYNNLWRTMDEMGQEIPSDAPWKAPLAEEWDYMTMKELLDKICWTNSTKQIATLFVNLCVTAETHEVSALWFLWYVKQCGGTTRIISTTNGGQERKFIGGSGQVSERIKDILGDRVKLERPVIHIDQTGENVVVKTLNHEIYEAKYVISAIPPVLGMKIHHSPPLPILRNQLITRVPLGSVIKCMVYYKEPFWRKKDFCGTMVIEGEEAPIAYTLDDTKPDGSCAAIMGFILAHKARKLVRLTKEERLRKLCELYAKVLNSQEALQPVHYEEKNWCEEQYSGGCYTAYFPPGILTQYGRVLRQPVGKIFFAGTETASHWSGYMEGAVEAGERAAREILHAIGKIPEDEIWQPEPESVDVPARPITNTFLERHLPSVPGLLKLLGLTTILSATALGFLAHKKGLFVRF

Target: T1, MAO-B (Rattus norvegicus, UniProt P19643)
T1 construct: the whole brain without cerebellum was dissected rapidly and frozen on dry ice; from tissue; host or cells: whole brain without cerebellum of orally dosed male Wistar rats, homogenate
Test: Inhibition of Type B monoamine oxidase activity in rat brain synaptosomes
Assay type: biochemical
Details: substrate [^14 C]-PEA 200 μM; read-out: Inhibitory Concentration - IC50 MAO-B
Description: Inhibition of Type A and Type B Monoamine Oxidase Activity in Rat Brain Synaptosomes
To determine the selective inhibition of the two forms of monoamine oxidase (MAO).
Although various methods for measuring MAO activity are available, the described method involves the extraction of the radiolabeled deaminated metabolites of [^3 H]-5HT or [^14 C]-β-phenethylamine. This procedure allows MAO-A and MAO-B activities to be measured either simultaneously or individually (3).
c. Add 12 μl of [^14 C]-PEA to 2 ml of the 5 mM PEA solution. (final amine concentration in the assay is 200 μM: see below.)
5. Equal amounts of MAO-A (5HT) and MAO-B (PEA) substrates are combined for simultaneously testing both MAO types, i.e. mixed stock solution of 2.5 mM 5HT and 2.5 mM PEA, 40 μl of this mixed solution gives a 200 μM final concentration of each amine in the assay. […]
Tubes are preincubated for 15 minutes at 37° C. and the assay is started by adding 40 μl of combined substrate ([^3 H]-5HT and [^14 C]-PEA) at 15 second intervals. […] Tissue blank values are determined by adding the acid before the radioactive substrate. […] 10 ml of Liquiscint is added and the samples are counted using window settings for ^14 C in one channel and ^3 H in the second channel. IC50 values are determined by log-probit analysis.

## COc1cc(Br)c2oc(C3CCNCC3)cc2c1 [Brofaromine, reference compound]
  IC50: 23 µM
